In PubChem BioAssay AID624287 (National Center for Advancing Translational Sciences (NCATS), 2012) one finds activation (cAMP increase) data, which are given here for one compound.

The structures appear in SMILES notation. This list holds what a sample rich in hits left over. Inconclusive results are not listed. Active and inactive are the calls of the source. Calls follow the shape of the dose curve; as a rule, active = well fitted activation curve with a large enough effect; inconclusive = small, poorly fitted or top-dose-only effect, or another doubt; inactive = no such curve, though single readings can be large or run the other way; cell line not stated here.

This test in a line: qHTS for Agonist of gsp, the Etiologic Mutation Responsible for Fibrous Dysplasia/McCune-Albright Syndrome: qHTS.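 Also: phosphodiesterase inhibitor Ro 20-1724 added with compounds to block cAMP breakdown; nearly all actives have a fitted effect of over 60% in size.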 The settings on record: gsp mutant cells, cAMP HTRF, 30 min; at 76.9 µM (top of the series). The text has this:
McCune-Albright syndrome (MAS) is a rare disease caused by somatic mutations in Gsgsp), a widely expressed protein central in signal transduction from G-coupled protein receptors (GPCRs). The disease symptoms are diverse, owing to the fact that the patients are mosaics with varying degrees of tissue involvement. Greater than 90% of the mutations in Gs in MAS occur at the R201 position and are equally divided between R201H and R201C. The R201 residue is central in the intrinsic GTPase activity of Gs and the H and C mutations lead to loss of, or impairment of, the GTPase activity. […] The tissue phenotype is determined by the role of Gs in the function of a given cell, and excess Gs/cAMP signaling in that cell. […]
1.#Seed 2000 cells/well in 6 ul DMEM 10% FBS, 1% Pen/Strep, 0.5 mg/ml G418 2.#Incubate 16-24 hr at 37C, 5% CO2, 95% humidity 3.#Aspirate leaving 1 ul residual volume 4.#Dispense 5 ul/well DPBS + 1 mM CaCl2, 0.5 mM MgCl2, 0.05% BSA, 0.005% Tween 20 5.#Aspirate leaving 2 ul residual volume 6.#Dispense 23 nl/well compounds in DMSO 7.#Dispense 1 ul/well 300 uM Ro-20174 in DMEM 10% FBS 8.#Incubate 30 min at 37C, 5% CO2, 95% humidity 9.#Dispense 1.5 ul/well HTRF reagent: cAMP-d2 in lysis buffer 10.#Dispense 1.5 ul/well HTRF reagent: anti-cAMP antibody-K in lysis buffer 11.#Incubate 30 min at room temperature 12.#Detect HTRF signal using EnVision plate reader
(Quantitative high-throughput screening tests each substance at several concentrations.)
With `COc1ccc(CC(C)NCC(O)c2ccc(O)c(NC=O)c2)cc1` (stereo unspecified), the activation (cAMP increase) was inactive: -34%.
